Results reported in ChEMBL document CHEMBL1124450, “Identification of structural requirements for analogues of atrial natriuretic peptide (ANP) to discriminate between ANP receptor subtypes” (J Med Chem, 1989).
pIC50: −log10 of the molar value.

Columns and labels:
[1] = Ratio of IC50 of guanylate cyclase coupled receptor binding and non-guanylate cyclase coupled binding
[2] = biological target: T1, Atrial natriuretic peptide receptor (Homo sapiens, UniProt P20594+P16066+P17342); assay: Inhibitory activity against guanylate cyclase coupled receptor binding site in rabbit lung by using [125I]-ANP-(103-126); assay type: protein assay, Oryctolagus cuniculus; conditions: target entry is the homologue from another species
T1 sequence (P20594 whole entry): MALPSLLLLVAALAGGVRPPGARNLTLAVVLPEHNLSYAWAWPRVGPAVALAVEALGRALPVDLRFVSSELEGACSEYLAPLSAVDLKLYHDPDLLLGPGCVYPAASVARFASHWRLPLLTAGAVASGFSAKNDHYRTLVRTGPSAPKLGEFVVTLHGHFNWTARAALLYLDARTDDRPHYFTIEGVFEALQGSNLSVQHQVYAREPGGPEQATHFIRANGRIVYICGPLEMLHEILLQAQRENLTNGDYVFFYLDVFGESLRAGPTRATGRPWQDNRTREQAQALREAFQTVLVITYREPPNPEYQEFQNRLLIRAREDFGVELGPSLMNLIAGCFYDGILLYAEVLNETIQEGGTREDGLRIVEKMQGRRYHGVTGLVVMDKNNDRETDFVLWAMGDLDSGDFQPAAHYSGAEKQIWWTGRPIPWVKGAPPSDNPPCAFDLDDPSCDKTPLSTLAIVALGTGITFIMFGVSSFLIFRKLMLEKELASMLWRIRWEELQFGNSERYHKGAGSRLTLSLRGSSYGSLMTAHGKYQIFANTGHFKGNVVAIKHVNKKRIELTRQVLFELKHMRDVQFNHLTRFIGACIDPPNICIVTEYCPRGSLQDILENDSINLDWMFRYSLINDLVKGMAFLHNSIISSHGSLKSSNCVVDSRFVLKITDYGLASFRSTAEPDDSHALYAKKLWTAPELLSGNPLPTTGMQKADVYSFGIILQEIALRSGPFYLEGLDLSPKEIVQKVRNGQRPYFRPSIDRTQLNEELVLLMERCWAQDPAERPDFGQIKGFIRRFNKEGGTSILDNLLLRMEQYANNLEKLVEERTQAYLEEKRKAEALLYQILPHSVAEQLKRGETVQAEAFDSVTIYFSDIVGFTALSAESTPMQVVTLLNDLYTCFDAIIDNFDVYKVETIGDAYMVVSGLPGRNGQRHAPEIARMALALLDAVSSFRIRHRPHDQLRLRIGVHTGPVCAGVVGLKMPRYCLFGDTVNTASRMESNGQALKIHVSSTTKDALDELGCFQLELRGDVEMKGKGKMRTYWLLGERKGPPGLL
T1 sequence (P16066 whole entry): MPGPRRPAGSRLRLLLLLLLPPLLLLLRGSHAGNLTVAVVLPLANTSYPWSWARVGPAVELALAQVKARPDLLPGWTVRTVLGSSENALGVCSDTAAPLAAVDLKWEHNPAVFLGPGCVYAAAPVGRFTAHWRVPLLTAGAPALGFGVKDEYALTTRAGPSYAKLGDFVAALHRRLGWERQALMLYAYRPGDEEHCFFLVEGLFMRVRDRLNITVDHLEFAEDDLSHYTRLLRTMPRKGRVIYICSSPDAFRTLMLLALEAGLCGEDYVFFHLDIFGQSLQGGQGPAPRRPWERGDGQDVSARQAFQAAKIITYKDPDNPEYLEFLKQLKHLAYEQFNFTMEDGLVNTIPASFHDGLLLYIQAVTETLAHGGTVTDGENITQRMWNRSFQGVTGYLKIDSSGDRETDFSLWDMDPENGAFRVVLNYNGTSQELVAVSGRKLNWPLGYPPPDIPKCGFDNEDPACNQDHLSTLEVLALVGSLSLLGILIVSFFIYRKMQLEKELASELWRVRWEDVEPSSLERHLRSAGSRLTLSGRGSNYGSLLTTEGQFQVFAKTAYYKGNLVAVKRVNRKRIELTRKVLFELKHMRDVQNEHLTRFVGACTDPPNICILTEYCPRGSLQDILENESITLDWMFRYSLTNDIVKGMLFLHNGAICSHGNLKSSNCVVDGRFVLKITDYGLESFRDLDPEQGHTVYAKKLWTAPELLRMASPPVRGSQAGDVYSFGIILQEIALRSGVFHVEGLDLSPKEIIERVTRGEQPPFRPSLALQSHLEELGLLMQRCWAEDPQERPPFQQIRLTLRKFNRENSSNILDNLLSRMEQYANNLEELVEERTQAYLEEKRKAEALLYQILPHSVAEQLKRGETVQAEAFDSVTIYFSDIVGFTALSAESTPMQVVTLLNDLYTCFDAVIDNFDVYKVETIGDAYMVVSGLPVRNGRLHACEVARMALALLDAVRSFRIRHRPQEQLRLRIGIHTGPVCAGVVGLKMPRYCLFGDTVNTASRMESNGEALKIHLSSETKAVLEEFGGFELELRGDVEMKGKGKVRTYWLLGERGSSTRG
T1 sequence (P17342 whole entry): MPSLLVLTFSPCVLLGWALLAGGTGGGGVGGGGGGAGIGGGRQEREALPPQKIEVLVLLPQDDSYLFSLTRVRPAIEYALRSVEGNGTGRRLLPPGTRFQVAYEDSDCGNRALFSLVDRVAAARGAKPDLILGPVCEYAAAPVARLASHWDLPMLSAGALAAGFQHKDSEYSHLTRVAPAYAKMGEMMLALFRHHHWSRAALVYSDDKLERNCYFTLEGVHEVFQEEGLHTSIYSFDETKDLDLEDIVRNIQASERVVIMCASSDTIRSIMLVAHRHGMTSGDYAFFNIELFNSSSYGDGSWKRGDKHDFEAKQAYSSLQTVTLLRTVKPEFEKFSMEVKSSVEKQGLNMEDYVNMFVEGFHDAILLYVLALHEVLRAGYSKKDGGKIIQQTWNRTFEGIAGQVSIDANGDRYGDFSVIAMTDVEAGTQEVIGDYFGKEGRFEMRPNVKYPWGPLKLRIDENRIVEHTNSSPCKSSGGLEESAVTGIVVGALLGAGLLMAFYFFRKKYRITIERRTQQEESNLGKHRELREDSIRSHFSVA

[3] = Inhibitory activity against non-guanylate cyclase receptor binding site in rabbit lung by using [125I]-ANP-(103-126); parameters: species or system Oryctolagus cuniculus

Structure (SMILES): CC[C@H](C)[C@@H]1NC(=O)[C@H](CCCN=C(N)N)NC(=O)[C@H](CC(=O)O)NC(=O)[C@H]([C@@H](C)CC)NC(=O)[C@H](CCCN=C(N)N)NC(=O)CNC(=O)CNC(=O)[C@H](Cc2ccccc2)NC(=O)[C@@H](NC(=O)[C@H](CO)NC(=O)[C@H](CO)NC(=O)[C@H](CCCN=C(N)N)NC(=O)[C@H](CCCN=C(N)N)NC(=O)[C@H](CC(C)C)NC(=O)[C@@H](N)CO)CSSC[C@@H](C(=O)N[C@@H](CC(N)=O)C(=O)N[C@@H](CO)C(=O)N[C@@H](Cc2ccccc2)C(=O)N[C@@H](CCCN=C(N)N)C(=O)N[C@@H](Cc2ccc(O)cc2)C(=O)O)NC(=O)CNC(=O)[C@H](CC(C)C)NC(=O)CNC(=O)[C@H](CO)NC(=O)[C@H](CCC(N)=O)NC(=O)[C@H](C)NC(=O)CNC1=O
- Ratio [1]: 1
- IC50 [2]: 54 pM
- pIC50 [3]: 10.27
